In one test the test system is HCT116 cells. In words: cells. The following applies: Homo sapiens, HCT-116, 72 h, read-out: Test Example 3 HCT116 GI50.
For test [1], the system named is PTDSS2 gene-disrupted (PTDSS2-KO) HCT116 cells. In words: cells. The following applies: Homo sapiens, HCT-116, 72 h, read-out: Test Example 3 PTDSS2-KO HCT116 GI50.

SMILES strings stand for the structures.

Turning to `O=C1c2[nH]nc(-c3cccc4[nH]c(=O)oc34)c2C(c2ccc(-c3ccccc3F)cc2)N1CC1CC1` (stereo not drawn) [Example 5, 7-[5-(Cyclopropylmethyl)-4-(2′-fluoro[1,1′-biphenyl]-4-yl)-6-oxo-1,4,5,6-tetrahydropyrrolo[3,4-c]pyrazol-3-yl]-1,3-benzoxazol-2(3H)-one], the GI50 (as a rule, the concentration that inhibits growth by half) was found to be 12 µM with HCT116 cells and 910 nM in test [1].
The matching figures for `CC(F)(F)CN1C(=O)c2[nH]nc(-c3cccc4[nH]c(=O)oc34)c2C1c1ccc(Oc2ccc(C(F)(F)F)cc2C(F)(F)F)cc1` (single isomer, unassigned) [Example 38, 7-[4-{4-[2,4-Bis(trifluoromethyl)phenoxy]phenyl}-5-(2,2-difluoropropyl)-6-oxo-1,4,5,6-tetrahydropyrrolo[3,4-c]pyrazol-3-yl]-1,3-benzoxazol-2(3H)-one (enantiomer)]: 9.2 µM and 73 nM.
Take `O=C1c2[nH]nc(-c3cccc4[nH]c(=O)oc34)c2C(c2cccc(OC3CCC3)c2)N1CC1CC1` (stereo not drawn) [Example 6, 7-{4-[3-(Cyclobutyloxy)phenyl]-5-(cyclopropylmethyl)-6-oxo-1,4,5,6-tetrahydropyrrolo[3,4-c]pyrazol-3-yl}-1,3-benzoxazol-2(3H)-one]: the GI50 with HCT116 cells came to 24 µM; in test [1], 710 nM.
On to `CC(F)(F)CN1C(=O)c2[nH]nc(-c3cccc4[nH]c(=O)oc34)c2C1c1ccc(Oc2ccc(OC(F)(F)F)cc2Cl)cc1` (single isomer, unassigned) [Example 52, 7-[4-{4-[2-Chloro-4-(trifluoromethoxy)phenoxy]phenyl}-5-(2,2-difluoropropyl)-6-oxo-1,4,5,6-tetrahydropyrrolo[3,4-c]pyrazol-3-yl]-1,3-benzoxazol-2(3H)-one (enantiomer)], for which the GI50 in the test on HCT116 cells was found to be 5.9 µM; in test [1], 63 nM.
For `CC(F)(F)CN1C(=O)c2[nH]nc(-c3cccc4[nH]c(=O)oc34)c2C1c1ccc(Oc2ccc(F)c(OC(F)(F)F)c2)cc1` (single isomer, unassigned) [Example 36, 7-[5-(2,2-Difluoropropyl)-4-{4-[4-fluoro-3-(trifluoromethoxy)phenoxy]phenyl}-6-oxo-1,4,5,6-tetrahydropyrrolo[3,4-c]pyrazol-3-yl]-1,3-benzoxazol-2(3H)-one (enantiomer)] the same measures were 8 µM and 14 nM.
The matching figures for `CC(F)(F)CN1C(=O)c2[nH]nc(-c3cccc4[nH]c(=O)oc34)c2C1c1ccc(Oc2ccc(OC(F)(F)F)c(Cl)c2)c(OCCCC(F)(F)F)c1` (single isomer, unassigned) [Example 81, 7-[4-{4-[3-Chloro-4-(trifluoromethoxy)phenoxy]-3-(4,4,4-trifluorobutoxy)phenyl}-5-(2,2-difluoropropyl)-6-oxo-1,4,5,6-tetrahydropyrrolo[3,4-c]pyrazol-3-yl]-1,3-benzoxazol-2(3H)-one (enantiomer)]: 3 µM and 15 nM.
For `Cc1cc(C2c3c(-c4cccc5[nH]c(=O)oc45)n[nH]c3C(=O)N2CC(C)(F)F)ccc1Oc1ccc(OC(F)(F)F)c(Cl)c1` (single isomer, unassigned) [Example 67, 7-[4-{4-[3-Chloro-4-(trifluoromethoxy)phenoxy]-3-methylphenyl}-5-(2,2-difluoropropyl)-6-oxo-1,4,5,6-tetrahydropyrrolo[3,4-c]pyrazol-3-yl]-1,3-benzoxazol-2(3H)-one (enantiomer)] the same measures were 8.3 µM and 32 nM.
In the case of `Cc1cc(C2c3c(-c4cccc5[nH]c(=O)oc45)n[nH]c3C(=O)N2CC(C)(F)F)c(F)cc1Oc1ccc(OC(F)(F)F)cc1` (single isomer, unassigned) [Example 64, 7-[5-(2,2-Difluoropropyl)-4-{2-fluoro-5-methyl-4-[4-(trifluoromethoxy)phenoxy]phenyl}-6-oxo-1,4,5,6-tetrahydropyrrolo[3,4-c]pyrazol-3-yl]-1,3-benzoxazol-2(3H)-one (enantiomer)], the figures for the 50% growth inhibitory concentration (GI50) (in the test with HCT116 cells; in test [1]) were 8.3 µM and 15 nM, respectively.
For `C[C@@H](Oc1ccc(C2c3c(-c4cccc5[nH]c(=O)oc45)n[nH]c3C(=O)N2CC(C)(F)F)cc1)c1ccccc1` (single isomer, unassigned) [Example 85] the same measures were 11 µM and 50 nM.
The matching figures for `Cc1nc(C2c3c(-c4cccc5[nH]c(=O)oc45)n[nH]c3C(=O)N2CC(C)(F)F)nc(C)c1Cl` (stereo not drawn) [Example 26, 7-[4-(5-Chloro-4,6-dimethylpyrimidine-2-yl)-5-(2,2-difluoropropyl)-6-oxo-1,4,5,6-tetrahydropyrrolo[3,4-c]pyrazol-3-yl]-1,3-benzoxazol-2(3H)-one]: 22 µM and 480 nM.
The matching figures for `CCCCc1cccc(C2c3c(-c4cccc5[nH]c(=O)oc45)n[nH]c3C(=O)N2CC(C)(F)F)c1` (stereo not drawn) [Example 27, 7-[4-(3-Butylphenyl)-5-(2,2-difluoropropyl)-6-oxo-1,4,5,6-tetrahydropyrrolo[3,4-c]pyrazol-3-yl]-1,3-benzoxazol-2(3H)-one]: 14 µM and 64 nM.
Regarding `CC(F)(F)CN1C(=O)c2[nH]nc(-c3cccc4[nH]c(=O)oc34)c2C1c1ccc(Oc2ccc(OC(F)(F)F)cc2)cc1F` (single isomer, unassigned) [Example 63, 7-[5-(2,2-Difluoropropyl)-4-{2-fluoro-4-[4-(trifluoromethoxy)phenoxy]phenyl}-6-oxo-1,4,5,6-tetrahydropyrrolo[3,4-c]pyrazol-3-yl]-1,3-benzoxazol-2(3H)-one (enantiomer)], the GI50 in the test with HCT116 cells worked out at 7.7 µM; in test [1] it was 20 nM.
The matching figures for `CC(F)(F)CN1C(=O)c2[nH]nc(-c3cccc4[nH]c(=O)oc34)c2C1c1ccc(Oc2cc(C(F)(F)F)cc(Cl)n2)cc1` (stereo not drawn) [Example 80, 7-[4-(4-{[6-Chloro-4-(trifluoromethyl)pyridin-2-yl]oxy}phenyl)-5-(2,2-difluoropropyl)-6-oxo-1,4,5,6-tetrahydropyrrolo[3,4-c]pyrazol-3-yl]-1,3-benzoxazol-2(3H)-one]: 8.3 µM and 170 nM.
The matching figures for `Cc1cc(Oc2ccc(OC(F)(F)F)c(Cl)c2)ccc1C1c2c(-c3cccc4[nH]c(=O)oc34)n[nH]c2C(=O)N1CC(C)(F)F` (single isomer, unassigned) [Example 37, 7-[4-{4-[3-Chloro-4-(trifluoromethoxy)phenoxy]-2-methylphenyl}-5-(2,2-difluoropropyl)-6-oxo-1,4,5,6-tetrahydropyrrolo[3,4-c]pyrazol-3-yl]-1,3-benzoxazol-2(3H)-one (enantiomer)]: 8.7 µM and 56 nM.
Regarding `Cc1cc(OC(F)(F)F)ccc1Oc1ccc(C2c3c(-c4cccc5[nH]c(=O)oc45)n[nH]c3C(=O)N2CC(C)(F)F)cc1` (single isomer, unassigned) [Example 43, 7-[5-(2,2-Difluoropropyl)-4-{4-[2-methyl-4-(trifluoromethoxy)phenoxy]phenyl}-6-oxo-1,4,5,6-tetrahydropyrrolo[3,4-c]pyrazol-3-yl]-1,3-benzoxazol-2(3H)-one (enantiomer)], the values for the GI50 (in the test on HCT116 cells; in test [1]) were 7.9 µM and 49 nM, respectively.

Source of the values: patent US12240855B2, “Pyrrolopyrazole derivative” (DAIICHI SANKYO COMPANY, LIMITED, priority 2019, dated 2025).
